The values below are quoted from earlier work in patent publication US9096606B2, “Quarternized buprenorphine analogs” (dated 2015).

The chains behind the UniProt entries cited, without tags or fusion partners. Where a name states a change or a piece, a line headed by the entry shows the natural chain unless it says otherwise.
UniProt P41146: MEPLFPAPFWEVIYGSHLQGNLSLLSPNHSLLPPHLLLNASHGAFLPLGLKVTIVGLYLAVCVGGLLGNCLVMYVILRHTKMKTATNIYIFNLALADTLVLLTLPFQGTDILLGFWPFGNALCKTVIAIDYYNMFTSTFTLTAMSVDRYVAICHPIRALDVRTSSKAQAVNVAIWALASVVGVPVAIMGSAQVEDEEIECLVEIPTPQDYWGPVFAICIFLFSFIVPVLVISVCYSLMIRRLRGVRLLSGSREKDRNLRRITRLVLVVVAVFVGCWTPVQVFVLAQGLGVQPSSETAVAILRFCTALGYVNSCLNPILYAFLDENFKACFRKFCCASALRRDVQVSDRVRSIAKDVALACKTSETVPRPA

As usually defined, the IC50 is the point on the concentration scale where inhibition reaches its midpoint.

The target of this series is ORL-1 (Homo sapiens (Human), UniProt P41146). Particulars: read-out: IC50 (at least partial agonist for ORL-1); S. Wnendt et al., Molec. Pharmacol. 1999.

7-benzylidenenaltrexone: the IC50 was 10 µM.
